Results published in PMC6468047, “Cannabinoid CB1 and CB2 Receptor-Mediated Arrestin Translocation: Species, Subtype, and Agonist-Dependence” (Frontiers in Pharmacology, 2019).

Experiments:
[1] = target: human vasopressin receptor 2 (3HA-hV2R) (human) (UniProt P30518)
[2] = target: human vasopressin receptor 2 (3HA-hV2R) (human) (UniProt P30518); remark: listed apart in the source
[3] = target: human vasopressin receptor 2 (3HA-hV2R) (human) (UniProt P30518); remark: listed apart in the source

logEC50 of AVP for bβ-arrestin-2 translocation to the plasma membrane in cells expressing V2R (BRET, AUC of 25 min) [1]: -8.3 log M
logEC50 of AVP for bβ-arrestin-1 translocation to the plasma membrane in cells expressing V2R (BRET, AUC of 25 min) [2]: -8.24 log M
logEC50 of AVP for hβ-arrestin-1 translocation to the plasma membrane in cells expressing V2R (BRET, AUC of 25 min) [3]: -8.33 log M
Substance: Arginine vasopressin (peptide)
